This passage reports IC50 results from ChEMBL document CHEMBL5727654 (2020).

Sequences of proteins named here, by UniProt entry; tags and fusion partners are left off.
UniProt P40763, whole entry: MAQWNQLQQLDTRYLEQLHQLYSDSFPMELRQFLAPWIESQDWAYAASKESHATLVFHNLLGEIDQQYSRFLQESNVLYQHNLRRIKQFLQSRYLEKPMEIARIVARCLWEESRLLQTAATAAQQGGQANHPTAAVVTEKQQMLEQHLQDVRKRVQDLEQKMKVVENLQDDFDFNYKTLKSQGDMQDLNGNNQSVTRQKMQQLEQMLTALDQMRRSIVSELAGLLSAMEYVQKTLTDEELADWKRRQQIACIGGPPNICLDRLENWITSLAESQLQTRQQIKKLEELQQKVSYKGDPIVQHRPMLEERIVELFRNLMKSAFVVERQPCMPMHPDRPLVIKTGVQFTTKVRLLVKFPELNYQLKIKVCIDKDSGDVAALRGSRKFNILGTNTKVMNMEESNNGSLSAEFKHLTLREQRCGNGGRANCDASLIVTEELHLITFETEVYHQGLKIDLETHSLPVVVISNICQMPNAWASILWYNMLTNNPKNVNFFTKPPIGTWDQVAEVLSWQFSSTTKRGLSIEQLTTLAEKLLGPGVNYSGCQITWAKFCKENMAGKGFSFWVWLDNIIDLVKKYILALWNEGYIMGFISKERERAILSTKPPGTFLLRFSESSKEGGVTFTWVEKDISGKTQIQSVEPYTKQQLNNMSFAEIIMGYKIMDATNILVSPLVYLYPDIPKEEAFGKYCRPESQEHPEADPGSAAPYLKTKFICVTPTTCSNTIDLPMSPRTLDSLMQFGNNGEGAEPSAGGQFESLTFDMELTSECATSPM

pIC50: −log10 of the molar value.

The assay deals with Signal transducer and activator of transcription 3 (Homo sapiens, UniProt P40763). The assay can be described thus: Bioassay Evaluation: Compound samples (in 3-5 mg quantities) were evaluated in a variety of assays. All compound submissions were fully characterized (1H, 13C, IR, HRMS), satisfied purity criteria (≥95% LC/MC, ELS). It counts as single protein.

The compound `COc1ccc(C2=Nn3c(nnc3-c3[nH]nc4c3CCC4)SC2)cc1` showed a pIC50 of 4.75.

A word on the pIC50: it is −log10 of the IC50, conventionally taken in molar units.
